The values below are quoted from earlier work in patent US20230220377A1, “SINGLE CELL ANALYSIS” (BioSkryb Genomics, Inc., priority 2019, published 2023).

This series concerns FLT3. As to conditions: relapsed or refractory AML patients; monotherapy with FLT3 inhibitor.

With `CC(C)(C)c1cc(NC(=O)Nc2ccc(-c3cn4c(n3)sc3cc(OCCN5CCOCC5)ccc34)cc2)no1` [quizartinib], the composite complete remission result is listed as “approximately 50%”.
